Results: EP0273990B1, “Novel organic peroxides and their use in the preparation of epoxide groups containing (co)polymers” (AKZO N.V., priority 1986, dated 1988)

Details: half-life period of decomposition 10 hours; 0,1 M solution in chlorobenzene

Compound	Temperature (°C) for t½ of 10 hours [°C]
C=CC(C)(C)OOC(C)(C)C=C	107
C=CC(C)(C)OOC(=O)OCCOCCOC(=O)OOC(C)(C)C=C	72
0-isopropyl 0,0-(2-methyl-3-buten-2-yl) monoperoxycarbonate	76
C=CC(C)(C)OOC1(OOC(C)(C)C=C)CCCCC1	74
0-(n-octyl) 0,0-(2-methyl-3-buten-2-yl) monoperoxycarbonate	80
C=CC(C)(C)OOC(C)(C)c1ccc(C(=C)C)cc1	114
C=CC(C)(C)OOC(C)(C)C	110
0-(n-hexadecyl) 0,0-(2-methyl-3-buten-2-yl) monoperoxycarbonate	64
C=CC(C)(C)OOC(=O)OCCCCCCOC(=O)OOC(C)(C)C=C	94
0-(2-ethylhexyl) 0,0-(2-methyl-3-buten-2-yl) monoperoxycarbonate	75
0-(4-t-butylcyclohexyl) 0,0-(2-methyl-3-buten-2-yl) monoperoxycarbonate	76
0-allyl 0,0-(2-methyl-3-buten-2-yl) monoperoxycarbonate	67
